From patent US6894049B1, “Platinum complexes as antitumor agents” (AnorMED, Inc., priority 2000, dated 2005)

Columns and labels:
[1] = Maximum tolerated dose in mice; format: in vivo
[2] = Aqueous solubility at ambient conditions; format: physicochemical

In the case of “cis-ammine(2-methylpyridine)dichloroplatinum(II) [reference compound]”, the “maximum tolerated dose (MTD)” value [1] is reported as 40 mg/kg and the “Aqueous Solubility” value [2] is reported as 700 µg/mL.
